Target: T1, HIF-2α (Homo sapiens, UniProt Q99814)
T1 construct: endogenous in cells; host or cells: 786-O cells stably expressing HRE-luciferase
Assay: HRE-luciferase activity in stable HRE/luciferase-expressing 786-O cells
Format: cell-based
Settings: 786-0
Procedure: HRE, hypoxia-responsive element.
FIG. 5. […] PBS was used in CTL and compound C76 was used as a positive control. **, P<0.01, ****, P<0.0001. Student t test.
FIG. 7. Ethacridine is a potent HIF-α inhibitor. To validate the inhibitory effect of Ethacridine, stable 786-O cells expressing HRE-Luciferase was treated with Ethacridine at the indicated concentration for 24 h. Luciferase activity was then measured and normalized to control vehicle (DMSO) group. Ethacridine at 5 uM could inhibited approximately 80% HRE activity, i.e., HIF activity. Data are expressed as mean±SD. […]

Sequences of proteins named here, by UniProt entry; tags and fusion partners are left off. A change or cut given only in a name is not applied to a line headed by its entry.
UniProt Q99814: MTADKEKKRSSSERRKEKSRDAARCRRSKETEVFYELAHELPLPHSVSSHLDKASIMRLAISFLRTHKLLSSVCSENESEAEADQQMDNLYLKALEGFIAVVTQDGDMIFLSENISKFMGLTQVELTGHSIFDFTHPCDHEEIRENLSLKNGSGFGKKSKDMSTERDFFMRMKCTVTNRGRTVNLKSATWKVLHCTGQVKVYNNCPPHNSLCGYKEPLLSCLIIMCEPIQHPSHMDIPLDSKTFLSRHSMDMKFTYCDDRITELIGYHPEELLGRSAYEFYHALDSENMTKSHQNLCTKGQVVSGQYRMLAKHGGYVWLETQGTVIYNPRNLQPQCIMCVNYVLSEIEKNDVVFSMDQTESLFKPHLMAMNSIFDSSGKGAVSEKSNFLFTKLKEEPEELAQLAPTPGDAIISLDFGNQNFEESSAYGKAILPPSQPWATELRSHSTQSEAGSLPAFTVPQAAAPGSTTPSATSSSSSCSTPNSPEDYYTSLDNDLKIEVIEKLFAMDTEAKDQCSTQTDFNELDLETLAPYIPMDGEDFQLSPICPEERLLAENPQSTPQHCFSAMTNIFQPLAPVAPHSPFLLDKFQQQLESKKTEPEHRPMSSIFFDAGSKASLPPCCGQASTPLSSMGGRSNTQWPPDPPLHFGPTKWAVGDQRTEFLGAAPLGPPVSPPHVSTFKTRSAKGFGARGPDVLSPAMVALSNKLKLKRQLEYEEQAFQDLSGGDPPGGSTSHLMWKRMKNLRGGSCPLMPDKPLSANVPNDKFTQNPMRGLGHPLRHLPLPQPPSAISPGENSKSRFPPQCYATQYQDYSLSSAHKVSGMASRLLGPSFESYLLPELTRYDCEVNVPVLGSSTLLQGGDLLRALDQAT

inhibition at 1.25 µM: 65 to 77%
SMILES: COc1cc([C@@H]2c3cc4c(cc3[C@@H](O[C@@H]3O[C@@H]5CO[C@@H](C)O[C@H]5[C@H](O)[C@H]3O)[C@H]3COC(=O)[C@H]23)OCO4)cc(OC)c1O [Etoposide, (5S,5aR,8aR,9R)-5-[[(2R,4aR,6R,7R,8R,8aS)-7,8-dihydroxy-2-methyl-4,4a,6,7,8,8a-hexahydropyrano[3,2-d][1,3]dioxin-6-yl]oxy]-9-(4-hydroxy-3,5-dimethoxyphenyl)-5a,6,8a,9-tetrahydro-5H-[2]benzofuro[6,5-f][1,3]benzodioxol-8-one]

Source: patent US20230310478A1, “METHODS AND COMPOSITIONS FOR THE TREATMENT OF PULMONARY HYPERTENSION AND CANCER” (Ann and Robert H. Lurie Children's Hospital of Chicago, priority 2020, published 2023)
